Measurements as given in patent US20180271787A1, “COMBINATION METHODS AND COMPOSITIONS” (CELATOR PHARMACEUTICALS, INC., priority 2008, published 2018).

Test system: DLD-1 human colon xenografts
Test: Efficacy in mice bearing DLD-1 human colon xenografts
Format: in vivo, female nude-Foxn1 mice
Details: DLD-1 human colon xenograft model
Experimental: Briefly, in order to perform tumor studies on mice, animals are inoculated subcutaneously with approximately 2×10^6 tumor cells which are then allowed to grow to sufficient size before being treated. This is done using the methods described previously in PCT publication WO03/028696 (supra).
Either free irinotecan or Cetuximab® was administered to female nude-Foxn1 mice at doses of 100 mg/kg or 1 mg/mouse, respectively on a multiple dosing schedule as shown by the arrows in FIG. 1A. Cetuximab® was dosed on a Q3Dx7 schedule and irinotecan a Q7Dx3 schedule.
Either liposomal irinotecan or free Cetuximab® was administered to female nude-Foxn1 mice at doses of 100 mg/kg or 1 mg/mouse, respectively on a multiple dosing schedule as shown by the arrows in FIG. 1B. Cetuximab® was dosed on a Q3Dx7 schedule and liposomal irinotecan on a Q7Dx3 schedule.

Cetuximab®: epidermal growth factor receptor inhibitor
effect of Cetuximab on activity of irinotecan and liposomal irinotecan (example title): Enhances the Activity of Irinotecan as well as Liposomal Irinotecan
